Results from ChEMBL document CHEMBL2146414, “Lignan derivatives from Krameria lappacea roots inhibit acute inflammation in vivo and pro-inflammatory mediators in vitro” (J Nat Prod, 2011).

Test system: Mus musculus
Experiment: Antiinflammatory activity in CD1 mouse ear dermatitis model assessed as inhibition of Croton oil-induced ear edema administered topically per cm'2 of ear measured after induction of dermatitis relative to untreated control
Type: functional
Summary of the method: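 Male CD-1 mice (28–32 g), anesthetized with ketamine 145 mg/kg i.p.; right ear (about 1 cm2) given 80 μg croton oil in 15 μL acetone, with test substance co-applied in acetone; left ear left untreated. Controls received irritant only. 6 mm punches taken from both ears; edema = weight difference treated minus untreated; % inhibition vs controls. ID50 by graphic interpolation of log dose–effect curves; ANOVA with Dunnett's test.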

Question: For C/C=C/c1ccc2c(c1)[C@@H](C)[C@H](c1ccc(O)cc1)O2, which ID50 is on record?
Answer: 0.31 umol/cm2
